Structures can show the parent of a compound that is named as a salt.
Test system: Salmonella typhimurium, Escherichia coli tester strains
Assay: Bacterial reverse mutation test
Assay type: cell-based

Compound: COc1ccc(COC=O)cc1 [anisyl formate]
- Ames assay result (Salmonella typhimurium strain TA 100 without metabolic activation): positive
- Ames assay result (overall outcome): positive

— paper PMC8976226 (Mutagenesis, 2022)
